In ChEMBL document CHEMBL5614410, “Design, Synthesis, and Evaluation of p53Y220C Acetylation Targeting Chimeras (AceTACs)” (J Med Chem, 2024) one finds fold change (FC) data, which are given here for one compound.

The experiment deals with CREB-binding protein/Histone acetyltransferase p300/Cellular tumor antigen p53 (Homo sapiens), P04637+Q09472+Q92793 [Y220C]. Briefly: AceTAC activity at FLAG-tagged p53Y220C mutant (unknown origin) expressed in human NCI-H1299 cells expressing p300/CBP assessed as fold increase in p53 acetylation at lysine 382 residue at 10 uM incubated for 24 hrs by western blot analysis relative to control. The class given is cell-based. The method, boiled down:
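NCI-H1299 (p53Y220C) cells were exposed to 1, 3 and 10 μM for 24 h, then Western blotted. The K382ac signal was normalized to total p53Y220C and quantified from two independent experiments (±SD), relative to DMSO.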

On to `CCn1c2ccc(CNCCOCCOCCOCCC(=O)NCCOc3ccc(CCc4nc5cc(-c6c(C)noc6C)ccc5n4CCN4CCOCC4)cc3F)cc2c2ccc(-c3cc(C)cs3)cc21`, for which the fold change (FC) was determined as 6.
